Assay results as given in PubChem BioAssay (NCI).
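How tested: cells in 96-well plates exposed to compound for 48 hours at five concentrations. GI50: concentration for 50% inhibition of growth. TGI marks complete inhibition of growth.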

How the values were obtained:
Experiment in all cases: inhibition of tumour cell growth, NCI panel, 48 h; in the data active = GI50 below about 0.43 µM; inactive = the rest
NCI-H226 lung = test system: NCI-H226 lung
HL-60(TB) leukemia = test system: HL-60(TB) leukemia
MOLT-4 leukemia = test system: MOLT-4 leukemia
SNB-78 CNS = test system: SNB-78 CNS
SF-268 CNS = test system: SF-268 CNS
SNB-75 CNS = test system: SNB-75 CNS
SF-295 CNS = test system: SF-295 CNS
K-562 leukemia = test system: K-562 leukemia
U251 CNS = test system: U251 CNS
EKVX NSCLC = test system: EKVX NSCLC
SN12C renal = test system: SN12C renal
HCC-2998 colon = test system: HCC-2998 colon
LOX IMVI melanoma = test system: LOX IMVI melanoma
NCI-H460 lung = test system: NCI-H460 lung
UACC-62 melanoma = test system: UACC-62 melanoma
KM12 colon = test system: KM12 colon
HCT-116 colon = test system: HCT-116 colon
HT29 colon = test system: HT29 colon
UACC-257 melanoma = test system: UACC-257 melanoma
786-0 renal = test system: 786-0 renal
SF-539 CNS = test system: SF-539 CNS
RPMI-8226 leukemia = test system: RPMI-8226 leukemia
NCI-H322M lung = test system: NCI-H322M lung
KM20L2 colon = test system: KM20L2 colon
IGROV1 ovarian = test system: IGROV1 ovarian
DMS 114 small cell lung = test system: DMS 114 small cell lung
ACHN renal = test system: ACHN renal
UO-31 renal = test system: UO-31 renal
CCRF-CEM leukemia = test system: CCRF-CEM leukemia
SNB-19 CNS = test system: SNB-19 CNS
SR leukemia = test system: SR leukemia
M14 melanoma = test system: M14 melanoma
SW-620 colon = test system: SW-620 colon
RXF 393 renal = test system: RXF 393 renal
SK-MEL-28 melanoma = test system: SK-MEL-28 melanoma
LXFL 529 NSCLC = test system: LXFL 529 NSCLC
OVCAR-3 ovarian = test system: OVCAR-3 ovarian
HCT-15 colon = test system: HCT-15 colon
A549 NSCLC = test system: A549 NSCLC
DMS 273 small cell lung = test system: DMS 273 small cell lung
TK-10 renal = test system: TK-10 renal
NCI-H23 lung = test system: NCI-H23 lung
MALME-3M melanoma = test system: MALME-3M melanoma
SK-OV-3 ovarian = test system: SK-OV-3 ovarian
OVCAR-8 ovarian = test system: OVCAR-8 ovarian
COLO 205 colon = test system: COLO 205 colon
HOP-62 NSCLC = test system: HOP-62 NSCLC
M19-MEL melanoma = test system: M19-MEL melanoma
DLD-1 colon = test system: DLD-1 colon
NCI-H522 lung = test system: NCI-H522 lung

O=[N+]([O-])c1cc([N+](=O)[O-])c(O)c([N+](=O)[O-])c1.OC1CC2CCN3Cc4cc5c(cc4[C@H](C1O)C23)OCO5 (stereo not given in full)
> 100 µM: TGI (NCI-H226 lung) | TGI (HL-60(TB) leukemia) | TGI (MOLT-4 leukemia) | TGI (SNB-78 CNS) | TGI (SF-268 CNS) | TGI (SNB-75 CNS) | TGI (SF-295 CNS) | TGI (K-562 leukemia) | TGI (U251 CNS) | TGI (EKVX NSCLC) | TGI (SN12C renal) | TGI (HCC-2998 colon) | TGI (LOX IMVI melanoma) | TGI (NCI-H460 lung) | TGI (UACC-62 melanoma) | TGI (KM12 colon) | TGI (HCT-116 colon) | TGI (HT29 colon) | TGI (UACC-257 melanoma) | TGI (786-0 renal) | TGI (SF-539 CNS) | TGI (RPMI-8226 leukemia) | TGI (NCI-H322M lung) | TGI (KM20L2 colon) | TGI (IGROV1 ovarian) | TGI (DMS 114 small cell lung) | TGI (ACHN renal) | TGI (UO-31 renal) | TGI (CCRF-CEM leukemia) | TGI (SNB-19 CNS) | TGI (SR leukemia) | TGI (M14 melanoma) | TGI (SW-620 colon) | TGI (RXF 393 renal) | TGI (SK-MEL-28 melanoma) | TGI (LXFL 529 NSCLC) | TGI (OVCAR-3 ovarian) | TGI (HCT-15 colon) | TGI (A549 NSCLC) | TGI (DMS 273 small cell lung) | TGI (TK-10 renal) | TGI (NCI-H23 lung) | TGI (MALME-3M melanoma) | TGI (SK-OV-3 ovarian) | TGI (OVCAR-8 ovarian) | TGI (COLO 205 colon) | TGI (HOP-62 NSCLC) | TGI (M19-MEL melanoma) | TGI (DLD-1 colon) | TGI (NCI-H522 lung)
inactive: GI50 (NCI-H226 lung) > 100 µM | GI50 (HL-60(TB) leukemia) > 100 µM | GI50 (MOLT-4 leukemia) > 100 µM | GI50 (SNB-78 CNS) > 100 µM | GI50 (SF-268 CNS) > 100 µM | GI50 (SNB-75 CNS) > 100 µM | GI50 (SF-295 CNS) > 100 µM | GI50 (K-562 leukemia) > 100 µM | GI50 (U251 CNS) > 100 µM | GI50 (EKVX NSCLC) > 100 µM | GI50 (SN12C renal) > 100 µM | GI50 (HCC-2998 colon) > 100 µM | GI50 (LOX IMVI melanoma) > 100 µM | GI50 (NCI-H460 lung) > 100 µM | GI50 (UACC-62 melanoma) > 100 µM | GI50 (KM12 colon) > 100 µM | GI50 (HCT-116 colon) > 100 µM | GI50 (HT29 colon) > 100 µM | GI50 (UACC-257 melanoma) > 100 µM | GI50 (786-0 renal) > 100 µM | GI50 (SF-539 CNS) > 100 µM | GI50 (RPMI-8226 leukemia) > 100 µM | GI50 (NCI-H322M lung) > 100 µM | GI50 (KM20L2 colon) > 100 µM | GI50 (IGROV1 ovarian) > 100 µM | GI50 (DMS 114 small cell lung) > 100 µM | GI50 (ACHN renal) > 100 µM | GI50 (UO-31 renal) > 100 µM | GI50 (CCRF-CEM leukemia) > 100 µM | GI50 (SNB-19 CNS) > 100 µM | GI50 (SR leukemia) > 100 µM | GI50 (M14 melanoma) > 100 µM | GI50 (SW-620 colon) > 100 µM | GI50 (RXF 393 renal) > 100 µM | GI50 (SK-MEL-28 melanoma) > 100 µM | GI50 (LXFL 529 NSCLC) > 100 µM | GI50 (OVCAR-3 ovarian) > 100 µM | GI50 (HCT-15 colon) > 100 µM | GI50 (A549 NSCLC) > 100 µM | GI50 (DMS 273 small cell lung) > 100 µM | GI50 (TK-10 renal) > 100 µM | GI50 (NCI-H23 lung) > 100 µM | GI50 (MALME-3M melanoma) > 100 µM | GI50 (SK-OV-3 ovarian) > 100 µM | GI50 (OVCAR-8 ovarian) > 100 µM | GI50 (COLO 205 colon) > 100 µM | GI50 (HOP-62 NSCLC) > 100 µM | GI50 (M19-MEL melanoma) > 100 µM | GI50 (DLD-1 colon) > 100 µM | GI50 (NCI-H522 lung) > 100 µM
